Test results taken from patent US20240360194A1, “New Peptides as Potent and Selective GIP Receptor Agonists” (Sanofi, priority 2021, published 2024).

The chains behind the UniProt entries cited, without tags or fusion partners. Residues count along the entry.
UniProt P43220, 24-463: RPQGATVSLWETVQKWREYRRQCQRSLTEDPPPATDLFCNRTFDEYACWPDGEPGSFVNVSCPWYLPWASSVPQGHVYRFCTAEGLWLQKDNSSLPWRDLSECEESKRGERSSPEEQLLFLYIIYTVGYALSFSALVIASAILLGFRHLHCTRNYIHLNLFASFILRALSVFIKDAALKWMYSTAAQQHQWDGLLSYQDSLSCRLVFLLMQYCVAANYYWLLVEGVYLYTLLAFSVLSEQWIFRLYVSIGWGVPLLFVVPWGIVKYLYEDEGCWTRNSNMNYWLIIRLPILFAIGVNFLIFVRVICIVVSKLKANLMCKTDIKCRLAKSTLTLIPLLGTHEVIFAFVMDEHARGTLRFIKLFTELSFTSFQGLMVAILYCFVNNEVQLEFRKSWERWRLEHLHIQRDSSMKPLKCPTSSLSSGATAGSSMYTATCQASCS

Key:
[1] = molecular target: human GLP-1 receptor (hGLP-1R) (Homo sapiens, UniProt P43220); experiment: Binding assay, displacement of [125I]GLP-1 from HEK-293 membranes over-expressing GLP-1R (SPA)
Experimental: (§1) (1) Preparation of Membranes from HEK-293 Cells Over-Expressing GIPR or GLP-1R
(§2) HEK-293 cells recombinantly over-expressing GIPR or GLP-1R were grown to 50% confluency, washed with warm 1×PBS (Gibco) and detached in HEPES/EDTA-buffer (100 mM HEPES pH 7.5, 5 mM EDTA). Cells were harvested by centrifugation at 4° C. and 3000×g and the pellets were stored at −80° C. until further processing.
(§3) After thawing on ice, pellets were resuspended in HEPES/EDTA-buffer and homogenized on ice for 1 min using Ultra-Turray T25. After subsequent sonification the cell debris was removed by centrifugation at 1000×g and 4° C. Supernatants were then ultra-centrifuged at 100000×g and 4° C. under vacuum for 30 min. Pellets were resuspended in HEPES/EDTA/NaCl-buffer (20 mM HEPES, 1 mM EDTA, 150 mM NaCl; add 1 Complete Mini Protease inhibitor cocktail to 10 ml buffer) and protein content was determined via BCA-Protein assay.
(§4) (2) Measurement of Binding Activity of Test Compounds to Human GIPR or GLP-1R

[2] = molecular target: T1, human GIP receptor (hGIPR) (Homo sapiens, UniProt P48546); experiment: In vitro cellular cAMP assay for GIP receptor efficacy (HEK-293 cell line over-expressing receptor); type: cell-based
T1 sequence (P48546 22-466): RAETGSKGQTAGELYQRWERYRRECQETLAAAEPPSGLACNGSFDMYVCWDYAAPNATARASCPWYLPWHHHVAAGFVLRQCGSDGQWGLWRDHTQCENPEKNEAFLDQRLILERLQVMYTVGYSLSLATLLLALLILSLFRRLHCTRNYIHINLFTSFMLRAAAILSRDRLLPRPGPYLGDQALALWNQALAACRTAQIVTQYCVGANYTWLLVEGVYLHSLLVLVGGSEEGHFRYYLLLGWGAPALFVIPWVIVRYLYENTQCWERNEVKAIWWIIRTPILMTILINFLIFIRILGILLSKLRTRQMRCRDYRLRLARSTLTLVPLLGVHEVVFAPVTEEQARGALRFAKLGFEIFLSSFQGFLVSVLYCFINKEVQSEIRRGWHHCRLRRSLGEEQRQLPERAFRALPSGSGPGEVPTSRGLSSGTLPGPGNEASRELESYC

[3] = Solubility assessment (UHPLC-UV of supernatant, target 10 mg/ml); type: physicochemical; settings: Solubility buffer system A: 100 mM phosphate buffer pH 7.4; read-out: Soluble amount
Experimental: Prior to the solubility measurement of a peptide batch, its purity was determined through UHPLC/MS.
Therefore, solutions from solid samples were prepared in a buffer system with a concentration of 10 mg/ml compound based on the previously determined % purity: • Solubility buffer system A) 100 mM phosphate buffer pH 7.4 • Solubility buffer system B) 8 mM phosphate buffer pH 7.4, 14 mg/ml propylene glycol, 5.5 mg/ml phenol • Solubility buffer system C) 100 mM phosphate buffer pH 7.4, 2.7 mg/ml m-cresol
UHPLC-UV was performed after 1 h of gentle agitation and storage at 5° C. overnight (24 h) from the supernatant, which was obtained after 15 min of centrifugation at 2500 RCF (relative centrifugal acceleration).
The different UV extinction coefficients of sample and reference peptide were calculated based on the different amino acid sequences and considered in the concentration calculation.
The analytical method used was Analytical UHPLC Method A.
Peptide samples were prepared in solubility buffer system A or C and solubility was assessed as described in Methods.

[4] = molecular target: T1, human GIP receptor (hGIPR); experiment: Binding assay, displacement of [125I]GIP from HEK-293 membranes over-expressing GIPR (SPA)
Experimental: as §1, §2, §3, §4

Structure (SMILES): CC[C@H](C)[C@H](NC(=O)[C@H](CCC(=O)O)NC(=O)[C@H](CCC(=O)O)NC(=O)[C@H](CCCCNC(=O)COCCOCCNC(=O)COCCOCCNC(=O)CC[C@H](NC(=O)CCCCCCCCCCCCCCCCC(=O)O)C(=O)O)NC(=O)C(C)(C)NC(=O)[C@@H](NC(=O)[C@H](CO)NC(=O)[C@H](CC(C)C)NC(=O)[C@H](CC(=O)O)NC(=O)[C@H](CO)NC(=O)[C@@H](NC(=O)[C@@](C)(CC)NC(=O)[C@@H](NC(=O)CNC(=O)[C@H](CCC(=O)O)NC(=O)C(C)(C)NC(=O)[C@@H](N)Cc1ccc(O)cc1)[C@@H](C)O)[C@@H](C)CC)[C@@H](C)CC)C(=O)N[C@@H](Cc1c[nH]cn1)C(=O)N[C@@H](CCC(N)=O)C(=O)NC(C)(C)C(=O)N[C@@H](CCC(=O)O)C(=O)N[C@@H](Cc1ccccc1)C(=O)N[C@H](C(=O)N[C@@H](CCC(=O)O)C(=O)N[C@@H](Cc1c[nH]c2ccccc12)C(=O)N[C@@H](CC(C)C)C(=O)N[C@@H](CC(C)C)C(=O)N[C@@H](C)C(=O)N[C@@H](CCC(N)=O)C(=O)N[C@@H](CCCCN)C(=O)N1CCC[C@H]1C(=O)N[C@@H](CO)C(=O)N[C@@H](CO)C(=O)NC(C)(C)C(=O)N[C@@H](CCCCN)C(=O)N1CCC[C@H]1C(=O)N1CCC[C@H]1C(=O)N1CCC[C@H]1C(=O)N[C@@H](CCCCN)C(N)=O)[C@@H](C)CC [SEQ ID NO: 20, H2N-Y-Aib-E-G-T-Iva-I-S-D-L-S-I-Aib-K[{AEEA}2-gGlu-C18OH]-E-E-I-H-Q-Aib-E-F-I-E-W-L-L-A-Q-K-P-S-S-Aib-K-P-P-P-K-NH2]
- IC50 [1]: 304 nM
- EC50 [2]: 0.0431 nM
- solubility [3]: > 8800 µg/mL
- IC50 [4]: 0.3 nM
